# Experimental data: article doi:10.1101/2025.02.25.640118 (bioRxiv, 2025)
# B1: β-clamp (β subunit of DNA polymerase) (natural protein, E. coli, UniProt P0A988 1-366, looked up)
# chain: MKFTVEREHLLKPLQQVSGPLGGRPTLPILGNLLLQVADGTLSLTGTDLEMEMVARVALVQPHEPGATTVPARKFFDICRGLPEGAEIAVQLEGERMLVRSGRSRFSLSTLPAADFPNLDDWQSEVEFTLPQATMKRLIEATQFSMAHQDVRYYLNGMLFETEGEELRTVATDGHRLAVCSMPIGQSLPSHSVIVPRKGVIELMRMLDGGDNPLRVQIGSNNIRAHVGDFIFTSKLVDGRFPDYRRVLPKNPDKHLEAGCDLLKQAFARAAILSNEKFRGVRLYVSENQLKITANNPEQEEAEEILDVTYSGAEMEIGFNVSYVLDVLNALKCENVRMMLTDSVSSVQIEDAASQSAAYVVMPMRL
# Target: T1, HUαα-MsyB complex (E. coli, UniProt P0ACF0 1-90; P25738 1-124)
# T1 sequence (looked up) 1: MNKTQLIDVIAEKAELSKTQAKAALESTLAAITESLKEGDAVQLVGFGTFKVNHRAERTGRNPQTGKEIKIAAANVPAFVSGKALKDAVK
# T1 sequence (looked up) 2: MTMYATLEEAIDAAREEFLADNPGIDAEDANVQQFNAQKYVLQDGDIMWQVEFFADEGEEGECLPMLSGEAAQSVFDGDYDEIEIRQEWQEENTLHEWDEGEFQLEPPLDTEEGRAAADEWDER
# Experiment: SEC
binder,measurement,value
B1,stoichiometry N,1
